{
  "source": "patent US10465009B2",
  "about": "“BCMA antigen binding proteins” (Amgen Inc., priority 2012, dated 2019)",
  "molecules": {"B1": {"name": "2A1-MCC-DM1: parental 2A1 antibody conjugated to maytansine (DM1) using non-cleavable linker (SMCC) (conjugate)", "heavy": "EVQLVESGGGLVKPGRSLRLSCTASGFTFGDYALSWFRQAPGKGLEWVGVSRSKAYGGTTDYAASVKGRFTISRDDSKSFAYLQMNSLKTEDTAVYYCCSSGYSSGWTPFDYWGQGTLVTVSSASTKGPSVFPLAPSSKSTSGGTAALGCLVKDYFPEPVTVSWNSGALTSGVHTFPAVLQSSGLYSLSSVVTVPSSSLGTQTYICNVNHKPSNTKVDKKV[omitted - human IgG1 Fc]", "light": "QSVLTQPPSASGTPGQRVTISCSGSSSNIGSNTVNWYQQLPGTAPKLLIFNYHQRPSGVPDRFSGSKSGSSASLAISGLQSEDEADYYCAAWDDSLNGWVFGGGTELTVLGQPKAAPSVTLFPPSSEELQANKATLVCLISDFYPGAVTVAWKADSSPVKAGVETTTPSKQSNNKYAASSYLSLTPEQWKSHRSYSCQVTHEGSTVEKTVAPTECS"}, "B2": {"name": "Ab-3: human IgG1 anti-huBCMA mAb, heavy chain SEQ ID NO:278, light chain SEQ ID NO:284 (antibody)", "heavy": "EVQLLESGGGLVQPGGSLRLSCAASGFTFSSYAMNWVRQAPGKGLEWVSAISVGGDTYYADSVKGRFTISRDNSKNTLYLQVNSLRAEDSAVYYCAKDQVTLVRGVWYYYGLDVWGQGTTVTVSSASTKGPSVFPLAPSSKSTSGGTAALGCLVKDYFPEPVTVSWNSGALTSGVHTFPAVLQSSGLYSLSSVVTVPSSSLGTQTYICNVNHKPSNTKVDKKV[omitted - human IgG1 Fc]", "light": "DIVLTQSPLSLPVTPGEPASISCRSSQSLLHSNGNNYLDWYLQKPGQSPHLLISLGSQRTSGVPDRFSGSGSGTDFTLKISRVEAEDVGVYYCMQALQPPRRFGQGTKLEIKRTVAAPSVFIFPPSDEQLKSGTASVVCLLNNFYPREAKVQWKVDNALQSGNSQESVTEQDSKDSTYSLSSTLTLSKADYEKHKVYACEVTHQGLSSPVTKSFNRGEC"}, "B3": {"name": "Ab-2: human IgG1 anti-huBCMA mAb, heavy chain SEQ ID NO:276, light chain SEQ ID NO:282 (antibody)", "heavy": "B2 heavy with V82M, S90T, L102M", "light": "B2 light with L4M"}},
  "key": {"H929 human myeloma cells": {"test_system": "H929 human myeloma cells", "test": "H929 subcutaneous tumor xenograft model", "assay_type": "in vivo, NSG mice", "conditions": "dosed intravenously once", "from_the_text": "The majority of multiple myeloma tumor cells reside in the bone marrow and tumor burden has been associated with osteolytic bone disease. In addition, bone marrow stromal cells and osteoclasts may protect multiple myeloma tumor cells from chemotherapy. See Dougall, W C, et al., RANKL is a therapeutic target in multiple myeloma, Roodman-G D ed. Myeloma Bone Disease. Humana Press. 2010: 169-182. A NSG/NOG mouse model has been reported to be an improved host for growth of multiple myeloma cells in bone (Miyakawa-Y, et al., BBRC 313 (2004) 258-262). The NSG mouse model has also been optimized for the use of luciferase labeling for bioluminescent imaging and ex vivo selection for increased tumor take and growth rate (see EXAMPLE 10). 5×10^6 H929 human myeloma cells were implanted subcutaneously into female NSG (NOD/SCID IL2Rg−/−) mice using growth-factor reduced Matrigel™ (BD Biosciences) to generate tumor xenografts for efficacy studies. H929 cells express an average of approximately 24,000 BCMA sites/cell. Treatment with 2A1-MCC-DM1 or control conjugate (anti-streptavidin-MCC-DM1) was initiated when the tumor size reached an average of approximately 150 mm^3. Tumor-bearing animals were randomized by tumor size into groups of ten animals each and dosed intravenously once. A blinded dose response study of 2A1-MCC-DM1 at doses ranging from 20-200 ug DM1/kg (1-10 mg Ab/kg) was performed. […]"}, "[1]": {"test_system": "H929 luciferase-labeled myeloma cells", "test": "H929-luc bone-tropic xenograft model (incl. serum human IgG FLC kappa ELISA)", "assay_type": "in vivo, NSG mice", "conditions": "single IV treatment day 14, 250 ug DM1/kg (10 mg Ab/kg)", "method": "In short, H929 luciferase-labeled myeloma cells that express an average of approximately 24,000 BCMA sites per cell were administered intravenously (1×10^6 cells) into NSG mice. Fourteen days after tumor inoculation, tumor-bearing animals were randomized based on hind limb bioluminescence (tumor burden) into groups of ten animals each and dosed intravenously once. A blinded dosing study of 2A1CV5-MCC-DM1, unconjugated 2A1CV5 and control conjugate employing a single dose of 250 ug DM1/kg (10 mg Ab/kg) was performed in this established bone-tropic tumor model. No nutritional supplementation was provided.\n• 1×10^6 cells H929-luc cells, IV • Mice distributed into equal groups determined by hind limb BLI, Day 14 • Single treatment of antibody at 10 mg/kg, I.V., Day 14 • BLI measured 2×/week (blinded) • Study endpoint day 35 • 80 NSG (NOD/SCID IL2Rg−/−) mice were injected intravenously on Jan. 13, 2011, 1×10^6 H929luc cells • BLI was measured twice per week • Day 14 mice were distributed into five equivalent groups (n=10) based on hind limb tumor burden, as measured by BLI • Treatment plan: one I.V. injection • Treatment groups blinded and include: • Vehicle (PBS) • Anti-huBCMA-huIgG1-2A1-CV5 (unconjugated) • Anti-huBCMA-huIgG1-2A1-CV5-MCC-DM1 • Anti-huBCMA-huIgG1-2A1-WT-MCC-DM1 • Anti Streptavadin-MCC-DM1 • Anti-huBCMA-2A1-CV5-MCC-DM1 used at 10 mpk • Anti-huBCMA-2A1-WT-MCC-DM1 and anti Streptavadin-MCC-DM1 were normalized based on maytansinoid drug equivalents of 2A1-CV5-MCC-DM1 at 10 mpk • Timing: injected H929luc cells, ADC treatment began on day 14, analysis on day 35\nHuman immunoglobulin molecules consist of two heavy chains which define class (IgG, IgA, IgM, IgD, IgE) and identical light chains (kappa or lambda). In healthy individuals the majority of light chains in serum exist bound to heavy chains. Free Light Chains (FLC) are a natural product of B lymphocytes and represent a unique biomarker of neoplastic and reactive B cell related disorders. Increased FLC are associated with various malignant plasma disorders. Detection of FLC is an important diagnostic aid for a variety of diseases including multiple myeloma, smoldering myeloma and monoclonal gammopathy of undetermined significance. Human IgG FLC kappa ELISA (Biovendor, RD 194088100R-K) was used to analyze presence of FLC in sera from H929 xenografts. Kappa light chain antibodies were not detected in sera of mice 18 days after being treated with 2A1CV5-MCC-DM1, but were detected in sera of mice receiving vehicle (PBS) or isotype control conjugate (anti-Streptavidin-MCC-DM1) (see FIGS. 38 and 39)."}, "[2]": {"test": "Isoelectric point of whole antibody", "assay_type": "physicochemical"}, "[3]": {"test": "Differential Scanning calorimetry (DSC) thermostability", "assay_type": "physicochemical", "conditions": "DSC, full-length antibody, Table 11", "from_the_text": "Differential Scanning calorimetry (DSC) was used to compare the thermostability of parent and engineered antibodies. DSC is a thermodynamical tool for direct assessment of the heat energy uptake, which occurs in a sample within a regulated increase or decrease in temperature. DSC is commonly employed to assess the thermal and conformational stability of a protein. The melting temperature of a protein, or of individual domains, can be obtained from the DSC profile, and if the reaction is reversible the thermodynamic parameters of the unfolding can be determined. A protein is considered more thermostable when the Tm (transition temperature) is higher. When thermostability data are compared to other bioanalytical methods, like size exclusion chromatography (SEC), it has been observed that a correlation between greater thermostability (higher Tm) and decreased aggregation. Antibodies with a higher Tm and decreased aggregation formation have the potential for improved long-term stability thus potentially making better biotherapeutics.\nDSC was carried out using a MicroCal™ VP-Capillary DSC system (GE Healthcare, Piscataway, N.J.) equipped with an auto-sampler. The temperature differences between the reference and sample cells are continuously measured, and calibrated to power units. For example, the full-length antibodies shown in TABLE 10 were diluted to 0.5 mg/mL in a buffered solution. The solution reference and protein samples were measured in a 135 μL cell from 20 to 110° C. at a heating rate of 60° C./hour. The pre-scan was set at 15 minutes while the filtering period was 10 seconds. Signal from the blank buffer solution was used for baseline subtraction. The data analysis was performed using MicroCal™ Origin 7 software. Heat capacity during protein melting was calculated by normalizing over protein concentration."}, "[4]": {"test_system": "rrat BCMA (SEQ ID NO: 349)", "test": "Biacore T200 biosensor analysis, recombinant rat BCMA", "assay_type": "binding", "method": "Biosensor analysis was conducted at 25° C. in a HBS-P buffer system (10 mM HEPES pH 7.4, 150 mM NaCl, and 0.5% Surfactant P20) using a Biacore T200 optical biosensor equipped with a CM5 sensor chip according to the manufacturer's general protocol. The autosampler was maintained at 8° C.\nGoat anti-human IgG capture antibody (Jackson Laboratories; 109-005-098) was immobilized to all flow cells of the sensor chip using standard amine coupling chemistry (9,000 RU). This surface type provided a format for reproducibly capturing fresh analysis antibodies (ligand) after each regeneration step.\nFlow cells 1, 2, and 3 were used to analyze captured anti-BCMA antibodies (˜400-500 RU) while flow cell 4 was used as the reference flow cell.\nSix rBCMA concentrations ranging from 75.0 to 0.309 nM (3-fold dilutions) were prepared in running buffer. The rrat BCMA fusion protein\n(GS::6×His::Sumo::ratBCMA(aa 2-49)::GGS::G3::Avi) sequence:\nEach of the six analyte sample concentrations were run in duplicate and in a mixed order, as a means of assessing the reproducibility of binding and managing potential systematic bias to the order of injection. Multiple blank (buffer) injections also were run and used to assess and subtract system artifacts. The association and dissociation phases for all analyte concentrations were monitored for 300 s and 3600 s, respectively, at a flow rate of 50 uL/min.\nThe surface was regenerated with 10 mM glycine, pH 1.5 for 30 s, at a flow rate of 50 uL/min.\nThe data was aligned, double referenced, and fit using Scrubber 2™ software, which is an SPR data processing and non-linear least squares regression fitting program. First, a dissociation rate coefficient (kd) was determined from the first 600 s of the dissociation phase data. Second, the dissociation rate coefficient was applied as a fixed parameter in the global fit of the 300 s association phase data using a 1:1 binding model to determine the association rate coefficient (10 and the Rmax value."}},
  "note": "Numbering of substitutions follows the chain as printed.",
  "data": [
    {"molecule": "B1", "values": [
      {"measurement": "tumor growth inhibition", "setting": "H929 human myeloma cells; 67 ug DM1/kg (3 mg Ab/kg)", "result": "moderate tumor growth inhibition"},
      {"measurement": "tumor growth inhibition", "setting": "H929 human myeloma cells; 200 ug DM1/kg (10 mg Ab/kg)", "result": "robust tumor growth inhibition"},
      {"measurement": "antitumor effect (hind limb bioluminescence)", "setting": "[1]", "result": "complete tumor regression"}
    ]},
    {"molecule": "B2", "values": [
      {"measurement": "pI (Whole)", "setting": "[2]", "result": 8.55},
      {"measurement": "Tm", "setting": "[3]", "result": 79, "unit": "°C"},
      {"measurement": "ka", "setting": "[4]", "result": 626000, "unit": "M⁻¹ s⁻¹"},
      {"measurement": "kd", "setting": "[4]", "result": 0.00129, "unit": "s⁻¹"}
    ]},
    {"molecule": "B3", "values": [
      {"measurement": "pI (Whole)", "setting": "[2]", "result": 8.55},
      {"measurement": "Tm", "setting": "[3]", "result": 82.5, "unit": "°C"},
      {"measurement": "ka", "setting": "[4]", "result": 597000, "unit": "M⁻¹ s⁻¹"},
      {"measurement": "kd", "setting": "[4]", "result": 0.0014, "unit": "s⁻¹"}
    ]}
  ]
}
